Measured values: patent publication US5854388A, “Angiotensin IV peptides and receptor” (Washington State University Research Foundation, priority 1994, dated 1998)
pKi: −log10 of the molar value. Read-outs that look alike come from different tables or passages of the source.

How the values were obtained:
[1] = biological target: T1, AT4 receptor (Bos taurus, UniProt F1N1Q8); assay: 125I-AIV binding and competition, bovine adrenal cortical membranes
[2] = biological target: T1, AT4 receptor; assay: 125I-AIV binding and competition, solubilized bovine adrenal cortical receptor
[3] = system: rat kidney; assay: Renal cortical blood flow (laser doppler) and arterial pressure after infusion into the renal artery; assay type: in vivo

Row | Substance | pKi [1] | binding affinity for the AT4 receptor (in words) [1] | binding affinity higher than Lys-substituted AIV [1] [fold] | pKi ([1]; listed as Nle1 YIHPF) | binding affinity for the AT4 receptor (in words) ([1]; listed as Nle1 YIHPF) | binding to solubilized AT4 receptor (in words) [2] | binding affinity for the AT4 receptor (in words) ([1]; listed as Lys1 YIHPF) | increased blood flow as % of the maximum attainable with bradykinin ([3]; 100 pmole/25 ml/min) [%] | effect on arterial blood pressure (in words) ([3]; rat, in vivo)
1 | NleYIHPF | 12.00 | higher binding affinity than AIV | 60 | > 12.00 | higher binding affinity for an illustrative AT4 receptor than Lys1 YIHPF | – | – | – | –
2 | D-Val1 YIHPF | – | – | – | – | – | inactive | – | – | –
3 | KYIHPF | – | higher binding affinity than AIV | – | – | – | – | higher than NVal1 YIHPF | 38 | no significant changes in arterial blood pressure
